This test in a line: Antioxidant activity of the compound assessed as reducing activity of DPPH at 0.1 mM after 20 mins. The class given is functional. Also noted: scale not given: the % may be the effect or the level left.

The structures appear in SMILES notation.

Regarding `CC(Cc1ccc(O)c(O)c1)C(C)Cc1ccc(O)c(O)c1` (stereo unspecified), the Activity is 81%.
